Laboratory results reported in IntAct's records for PubMed 35512704.

B1: RAC-alpha serine/threonine-protein kinase (Homo sapiens), P31749 (parent)
chain: MSDVAIVKEGWLHKRGEYIKTWRPRYFLLKNDGTFIGYKERPQDVDQREAPLNNFSVAQCQLMKTERPRPNTFIIRCLQWTTVIERTFHVETPEEREEWTTAIQTVADGLKKQEEEEMDFRSGSPSDNSGAEEMEVSLAKPKHRVTMNEFEYLKLLGKGTFGKVILVKEKATGRYYAMKILKKEVIVAKDEVAHTLTENRVLQNSRHPFLTALKYSFQTHDRLCFVMEYANGGELFFHLSRERVFSEDRARFYGAEIVSALDYLHSEKNVVYRDLKLENLMLDKDGHIKITDFGLCKEGIKDGATMKTFCGTPEYLAPEVLEDNDYGRAVDWWGLGVVMYEMMCGRLPFYNQDHEKLFELILMEEIRFPRTLGPEAKSLLSGLLKKDPKQRLGGGSEDAKEIMQHRFFAGIVWQHVYEKKLSPPFKPQVTSETDTRYFDEEFTAQMITITPPDQDDSMECVDSERRPHFPQFSYSASGTA
partner: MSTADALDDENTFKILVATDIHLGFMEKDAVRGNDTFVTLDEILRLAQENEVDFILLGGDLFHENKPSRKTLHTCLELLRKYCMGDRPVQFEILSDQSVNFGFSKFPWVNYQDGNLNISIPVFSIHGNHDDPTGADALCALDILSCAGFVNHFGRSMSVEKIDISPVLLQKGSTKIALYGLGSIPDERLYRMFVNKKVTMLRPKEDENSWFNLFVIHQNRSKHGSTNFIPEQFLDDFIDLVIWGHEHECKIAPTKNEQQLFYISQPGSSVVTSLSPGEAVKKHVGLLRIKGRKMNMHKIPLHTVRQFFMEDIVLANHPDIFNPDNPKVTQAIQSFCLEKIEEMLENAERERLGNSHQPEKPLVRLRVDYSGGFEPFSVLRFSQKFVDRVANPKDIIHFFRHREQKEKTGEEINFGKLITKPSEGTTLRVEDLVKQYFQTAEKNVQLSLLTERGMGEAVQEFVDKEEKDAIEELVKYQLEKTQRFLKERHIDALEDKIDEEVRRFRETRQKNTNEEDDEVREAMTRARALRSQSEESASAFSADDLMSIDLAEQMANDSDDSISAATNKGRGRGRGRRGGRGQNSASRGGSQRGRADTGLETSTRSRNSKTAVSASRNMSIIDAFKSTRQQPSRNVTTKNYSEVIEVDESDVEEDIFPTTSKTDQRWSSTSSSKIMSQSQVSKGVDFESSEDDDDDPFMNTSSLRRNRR
B2: RAC-alpha serine/threonine-protein kinase (Homo sapiens), P31749 (parent)
chain: B1 chain
partner: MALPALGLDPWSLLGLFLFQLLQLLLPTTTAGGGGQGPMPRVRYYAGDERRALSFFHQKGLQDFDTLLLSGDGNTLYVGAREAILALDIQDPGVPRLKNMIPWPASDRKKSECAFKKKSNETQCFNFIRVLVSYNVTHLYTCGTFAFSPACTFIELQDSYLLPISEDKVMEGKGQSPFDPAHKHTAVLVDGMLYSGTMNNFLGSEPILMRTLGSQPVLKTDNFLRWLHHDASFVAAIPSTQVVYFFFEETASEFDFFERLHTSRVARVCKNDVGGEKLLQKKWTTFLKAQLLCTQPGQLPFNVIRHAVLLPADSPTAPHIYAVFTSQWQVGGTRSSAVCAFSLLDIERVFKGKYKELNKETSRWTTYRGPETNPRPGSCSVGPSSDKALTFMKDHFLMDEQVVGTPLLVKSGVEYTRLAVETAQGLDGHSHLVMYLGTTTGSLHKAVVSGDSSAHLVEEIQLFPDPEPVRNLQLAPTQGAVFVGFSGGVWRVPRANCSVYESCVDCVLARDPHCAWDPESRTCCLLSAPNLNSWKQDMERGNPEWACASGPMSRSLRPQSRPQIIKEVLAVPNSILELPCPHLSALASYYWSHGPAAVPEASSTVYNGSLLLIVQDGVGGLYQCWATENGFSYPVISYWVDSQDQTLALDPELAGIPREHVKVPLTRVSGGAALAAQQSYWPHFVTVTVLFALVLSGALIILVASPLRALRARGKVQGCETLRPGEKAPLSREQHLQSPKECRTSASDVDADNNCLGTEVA
B3: RAC-alpha serine/threonine-protein kinase (Homo sapiens), P31749 (parent)
chain: B1 chain
partner: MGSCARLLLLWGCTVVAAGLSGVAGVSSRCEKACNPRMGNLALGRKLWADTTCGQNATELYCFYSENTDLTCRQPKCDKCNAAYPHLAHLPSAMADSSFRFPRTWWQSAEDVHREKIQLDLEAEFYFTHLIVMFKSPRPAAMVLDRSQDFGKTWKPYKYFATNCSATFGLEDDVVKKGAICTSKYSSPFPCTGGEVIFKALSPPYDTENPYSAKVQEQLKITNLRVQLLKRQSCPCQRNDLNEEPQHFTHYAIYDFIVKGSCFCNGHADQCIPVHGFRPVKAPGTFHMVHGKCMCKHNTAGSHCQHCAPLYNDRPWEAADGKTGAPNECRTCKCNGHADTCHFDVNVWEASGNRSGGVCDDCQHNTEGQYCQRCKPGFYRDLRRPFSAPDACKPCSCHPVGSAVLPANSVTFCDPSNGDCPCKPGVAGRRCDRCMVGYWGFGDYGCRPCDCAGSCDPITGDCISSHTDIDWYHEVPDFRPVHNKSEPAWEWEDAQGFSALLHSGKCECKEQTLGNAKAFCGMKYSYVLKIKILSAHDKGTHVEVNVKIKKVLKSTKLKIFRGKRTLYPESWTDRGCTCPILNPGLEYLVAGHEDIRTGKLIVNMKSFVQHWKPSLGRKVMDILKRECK
B4: RAC-alpha serine/threonine-protein kinase (Homo sapiens), P31749 (parent)
chain: B1 chain
partner: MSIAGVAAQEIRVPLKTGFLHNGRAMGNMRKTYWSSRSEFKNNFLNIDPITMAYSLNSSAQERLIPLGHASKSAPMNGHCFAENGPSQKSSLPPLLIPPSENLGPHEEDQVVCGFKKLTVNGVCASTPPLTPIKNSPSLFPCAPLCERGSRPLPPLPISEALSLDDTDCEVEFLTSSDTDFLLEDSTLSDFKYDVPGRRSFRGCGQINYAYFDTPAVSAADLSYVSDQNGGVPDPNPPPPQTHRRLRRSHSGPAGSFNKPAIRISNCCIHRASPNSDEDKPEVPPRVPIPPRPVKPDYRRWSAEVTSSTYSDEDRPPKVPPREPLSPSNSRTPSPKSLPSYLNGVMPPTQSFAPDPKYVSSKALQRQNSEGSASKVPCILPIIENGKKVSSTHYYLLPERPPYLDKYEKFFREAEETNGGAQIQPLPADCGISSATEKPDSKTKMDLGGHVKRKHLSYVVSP
B5: RAC-alpha serine/threonine-protein kinase (Homo sapiens), P31749 (parent)
chain: B1 chain
partner: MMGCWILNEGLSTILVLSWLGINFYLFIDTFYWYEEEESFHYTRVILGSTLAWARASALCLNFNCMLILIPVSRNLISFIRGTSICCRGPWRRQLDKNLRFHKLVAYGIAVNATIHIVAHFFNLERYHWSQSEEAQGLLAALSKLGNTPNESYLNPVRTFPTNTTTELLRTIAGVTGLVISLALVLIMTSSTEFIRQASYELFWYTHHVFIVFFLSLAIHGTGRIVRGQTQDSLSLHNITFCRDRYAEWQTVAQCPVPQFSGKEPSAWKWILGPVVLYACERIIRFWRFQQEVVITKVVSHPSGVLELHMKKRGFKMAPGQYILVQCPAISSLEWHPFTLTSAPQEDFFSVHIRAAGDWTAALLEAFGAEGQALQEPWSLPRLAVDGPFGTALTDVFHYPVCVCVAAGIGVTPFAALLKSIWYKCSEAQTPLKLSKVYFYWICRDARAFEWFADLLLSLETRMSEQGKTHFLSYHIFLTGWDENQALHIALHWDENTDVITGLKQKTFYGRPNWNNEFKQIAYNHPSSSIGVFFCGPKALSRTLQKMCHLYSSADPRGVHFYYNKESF
B6: RAC-alpha serine/threonine-protein kinase (Homo sapiens), P31749 (parent)
chain: B1 chain
partner: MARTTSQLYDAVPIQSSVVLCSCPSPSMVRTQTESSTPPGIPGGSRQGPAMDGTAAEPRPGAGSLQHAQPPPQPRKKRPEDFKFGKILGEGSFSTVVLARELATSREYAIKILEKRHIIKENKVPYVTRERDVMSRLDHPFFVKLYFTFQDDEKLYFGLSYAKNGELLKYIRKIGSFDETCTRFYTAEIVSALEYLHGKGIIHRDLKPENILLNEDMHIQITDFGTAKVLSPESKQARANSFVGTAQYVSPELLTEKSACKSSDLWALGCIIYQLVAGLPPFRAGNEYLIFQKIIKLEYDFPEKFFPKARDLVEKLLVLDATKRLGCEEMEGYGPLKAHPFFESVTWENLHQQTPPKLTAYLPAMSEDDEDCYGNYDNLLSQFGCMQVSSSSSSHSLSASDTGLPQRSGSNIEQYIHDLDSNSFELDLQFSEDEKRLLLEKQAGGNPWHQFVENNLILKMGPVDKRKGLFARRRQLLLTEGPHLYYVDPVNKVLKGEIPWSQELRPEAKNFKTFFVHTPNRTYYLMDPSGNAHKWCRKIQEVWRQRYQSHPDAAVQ
B7: RAC-alpha serine/threonine-protein kinase (Homo sapiens), P31749 (parent)
chain: B1 chain
partner: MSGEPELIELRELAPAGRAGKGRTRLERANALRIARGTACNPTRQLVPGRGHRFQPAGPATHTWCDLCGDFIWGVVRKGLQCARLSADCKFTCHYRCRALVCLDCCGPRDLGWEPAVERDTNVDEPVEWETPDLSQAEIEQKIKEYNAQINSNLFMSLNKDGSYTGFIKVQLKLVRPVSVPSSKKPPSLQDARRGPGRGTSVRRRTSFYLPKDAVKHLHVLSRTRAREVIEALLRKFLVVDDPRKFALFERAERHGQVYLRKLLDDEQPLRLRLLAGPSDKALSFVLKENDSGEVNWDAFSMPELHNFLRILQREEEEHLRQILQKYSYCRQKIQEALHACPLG

Variants of: B1
Conditions: with mre11_human MRE11, P49959

Row | effect of a mutation on the interaction | Variant
1 | causing an interaction | E17K

Variants of: B2
Conditions: with sem4a_human SEMA4A

Row | effect of a mutation on the interaction | Variant
2 | causing an interaction | E17K

Variants of: B3
Conditions: with net4_human NTN4, Q9HB63

Row | effect of a mutation on the interaction | Variant
3 | causing an interaction | E17K

Variants of: B4
Conditions: with errfi_human ERRFI1, Q9UJM3

Row | effect of a mutation on the interaction | Variant
4 | causing an interaction | E17K

Variants of: B4
Conditions: with errfi_human ERRFI1, Q9UJM3
Remark: another data set of the same source

Row | effect of a mutation on the interaction | Variant
5 | increasing interaction strength | E17K

Variants of: B5
Conditions: with nox3_human NOX3, Q9HBY0

Row | effect of a mutation on the interaction | Variant
6 | causing an interaction | E17K

Variants of: B6
Conditions: with pdpk1_human PDPK1, O15530

Row | effect of a mutation on the interaction | Variant
7 | causing an interaction | E17K

Variants of: B7
Conditions: with rasf1_human RASSF1, Q9NS23

Row | effect of a mutation on the interaction | Variant
8 | causing an interaction | E17K

Variants of: B7
Conditions: with rasf1_human RASSF1, Q9NS23
Remark: another data set of the same source

Row | effect of a mutation on the interaction | Variant
9 | increasing interaction strength | E17K
